Permeability data for macrocyclic peptides

Source: CycPeptMPDB (Li et al. 2023), which took these values from Kelly et al. 2021, doi:10.1021/jacs.0c06115.

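Lipid, pH, incubation time, direction and concentration are not recorded in the data file. Other peptides of the study may be missing here. Peptides that the database sets to -10, its floor, are left out.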

PAMPA measures passive passage through an artificial lipid membrane. Permeability is in 10^-6 cm/s, converted from the database's log10 values; higher is more permeable.

compound | PAMPA (10^-6 cm/s)
CC(=O)N1CCC[C@@H]1C(=O)N(C)[C@@H](CC(C)C)C(=O)N[C@@H]1C(=O)N(C)[C@H](CC(C)C)C(=O)N(C)[C@@H](CC(C)C)C(=O)N[C@H](CC(C)C)C(=O)N(C)[C@H](C)C(=O)N[C@@H](CC(C)C)C(=O)N2CCC[C@@H]2C(=O)O[C@@H]1C | 9.3
CC(=O)N1CCC[C@H]1C(=O)N(C)[C@@H](CC(C)C)C(=O)N[C@@H]1C(=O)N[C@@H](CC(C)C)C(=O)N(C)[C@@H](CC(C)C)C(=O)N(C)[C@@H](CC(C)C)C(=O)N(C)[C@H](C)C(=O)N[C@@H](CC(C)C)C(=O)N2CCC[C@@H]2C(=O)O[C@@H]1C | 4.4
CC(=O)N1CCC[C@H]1C(=O)N(C)[C@@H](CC(C)C)C(=O)N[C@@H]1C(=O)N(C)[C@H](CC(C)C)C(=O)N[C@H](CC(C)C)C(=O)N[C@H](CC(C)C)C(=O)N[C@H](C)C(=O)N[C@H](CC(C)C)C(=O)N2CCC[C@@H]2C(=O)O[C@@H]1C | 0.03
CC(=O)N1CCC[C@H]1C(=O)N(C)[C@H](CC(C)C)C(=O)N[C@@H]1C(=O)N[C@H](CC(C)C)C(=O)N[C@H](CC(C)C)C(=O)N[C@@H](CC(C)C)C(=O)N[C@@H](C)C(=O)N[C@H](CC(C)C)C(=O)N2CCC[C@H]2C(=O)O[C@@H]1C | 0.27
CC(=O)N1CCC[C@H]1C(=O)N(C)[C@@H](CC(C)C)C(=O)N[C@@H]1C(=O)N[C@@H](CC(C)C)C(=O)N(C)[C@H](CC(C)C)C(=O)N[C@H](CC(C)C)C(=O)N[C@H](C)C(=O)N[C@@H](CC(C)C)C(=O)N2CCC[C@@H]2C(=O)O[C@@H]1C | 1.3
CC(=O)N1CCC[C@@H]1C(=O)N(C)[C@@H](CC(C)C)C(=O)N[C@@H]1C(=O)N[C@@H](CC(C)C)C(=O)N(C)[C@@H](CC(C)C)C(=O)N(C)[C@@H](CC(C)C)C(=O)N(C)[C@@H](C)C(=O)N[C@@H](CC(C)C)C(=O)N2CCC[C@H]2C(=O)O[C@@H]1C | 4.5
CC(=O)N1CCC[C@H]1C(=O)N(C)[C@H](CC(C)C)C(=O)N[C@@H]1C(=O)N[C@@H](CC(C)C)C(=O)N(C)[C@H](CC(C)C)C(=O)N[C@@H](CC(C)C)C(=O)N(C)[C@H](C)C(=O)N[C@@H](CC(C)C)C(=O)N2CCC[C@H]2C(=O)O[C@@H]1C | 1.3
CC(=O)N1CCC[C@@H]1C(=O)N(C)[C@H](CC(C)C)C(=O)N[C@@H]1C(=O)N(C)[C@@H](CC(C)C)C(=O)N(C)[C@H](CC(C)C)C(=O)N(C)[C@@H](CC(C)C)C(=O)N(C)[C@H](C)C(=O)N[C@@H](CC(C)C)C(=O)N2CCC[C@@H]2C(=O)O[C@@H]1C | 2.6
CC(=O)N1CCC[C@H]1C(=O)N[C@@H]1C(=O)N[C@H](CC(C)C)C(=O)N[C@@H](CC(C)C)C(=O)N[C@@H](CC(C)C)C(=O)N[C@H](CC(C)C)C(=O)N(C)[C@@H](C)C(=O)N[C@@H](CC(C)C)C(=O)N2CCC[C@@H]2C(=O)O[C@@H]1C | 13
CC(=O)N1CCC[C@@H]1C(=O)N(C)[C@@H](CC(C)C)C(=O)N[C@@H]1C(=O)N[C@H](CC(C)C)C(=O)N(C)[C@H](CC(C)C)C(=O)N[C@H](CC(C)C)C(=O)N(C)[C@@H](C)C(=O)N[C@H](CC(C)C)C(=O)N2CCC[C@H]2C(=O)O[C@@H]1C | 3.3
CC(=O)N1CCC[C@@H]1C(=O)N(C)[C@H](CC(C)C)C(=O)N[C@@H]1C(=O)N[C@@H](CC(C)C)C(=O)N[C@@H](CC(C)C)C(=O)N(C)[C@@H](CC(C)C)C(=O)N(C)[C@@H](C)C(=O)N[C@H](CC(C)C)C(=O)N2CCC[C@@H]2C(=O)O[C@@H]1C | 0.17
CC(=O)N1CCC[C@H]1C(=O)N[C@@H]1C(=O)N(C)[C@H](CC(C)C)C(=O)N(C)[C@H](CC(C)C)C(=O)N(C)[C@H](CC(C)C)C(=O)N[C@@H](CC(C)C)C(=O)N(C)[C@@H](C)C(=O)N[C@@H](CC(C)C)C(=O)N2CCC[C@@H]2C(=O)O[C@@H]1C | 7.2
CC(=O)N1CCC[C@@H]1C(=O)N(C)[C@@H](CC(C)C)C(=O)N[C@@H]1C(=O)N[C@@H](CC(C)C)C(=O)N(C)[C@@H](CC(C)C)C(=O)N[C@H](CC(C)C)C(=O)N[C@@H](C)C(=O)N[C@@H](CC(C)C)C(=O)N2CCC[C@@H]2C(=O)O[C@@H]1C | 5.9
CC(=O)N1CCC[C@H]1C(=O)N(C)[C@H](CC(C)C)C(=O)N[C@@H]1C(=O)N[C@H](CC(C)C)C(=O)N[C@@H](CC(C)C)C(=O)N(C)[C@H](CC(C)C)C(=O)N(C)[C@H](C)C(=O)N[C@H](CC(C)C)C(=O)N2CCC[C@H]2C(=O)O[C@@H]1C | 3.4
CC(=O)N1CCC[C@H]1C(=O)N(C)[C@H](CC(C)C)C(=O)N[C@@H]1C(=O)N(C)[C@@H](CC(C)C)C(=O)N[C@@H](CC(C)C)C(=O)N(C)[C@@H](CC(C)C)C(=O)N(C)[C@H](C)C(=O)N[C@H](CC(C)C)C(=O)N2CCC[C@H]2C(=O)O[C@@H]1C | 1.9
CC(=O)N1CCC[C@H]1C(=O)N(C)[C@@H](CC(C)C)C(=O)N[C@@H]1C(=O)N[C@H](CC(C)C)C(=O)N[C@@H](CC(C)C)C(=O)N(C)[C@@H](CC(C)C)C(=O)N[C@@H](C)C(=O)N[C@H](CC(C)C)C(=O)N2CCC[C@H]2C(=O)O[C@@H]1C | 1.5
CC(=O)N1CCC[C@@H]1C(=O)N(C)[C@H](CC(C)C)C(=O)N[C@@H]1C(=O)N(C)[C@@H](CC(C)C)C(=O)N[C@H](CC(C)C)C(=O)N(C)[C@@H](CC(C)C)C(=O)N[C@@H](C)C(=O)N[C@@H](CC(C)C)C(=O)N2CCC[C@@H]2C(=O)O[C@@H]1C | 0.1
CC(=O)N1CCC[C@H]1C(=O)N(C)[C@@H](CC(C)C)C(=O)N[C@@H]1C(=O)N(C)[C@@H](CC(C)C)C(=O)N(C)[C@@H](CC(C)C)C(=O)N[C@H](CC(C)C)C(=O)N(C)[C@@H](C)C(=O)N[C@H](CC(C)C)C(=O)N2CCC[C@H]2C(=O)O[C@@H]1C | 0.11
CC(=O)N1CCC[C@@H]1C(=O)N(C)[C@@H](CC(C)C)C(=O)N[C@@H]1C(=O)N(C)[C@H](CC(C)C)C(=O)N[C@H](CC(C)C)C(=O)N(C)[C@@H](CC(C)C)C(=O)N(C)[C@H](C)C(=O)N[C@H](CC(C)C)C(=O)N2CCC[C@@H]2C(=O)O[C@@H]1C | 4.1
CC(=O)N1CCC[C@H]1C(=O)N(C)[C@@H](CC(C)C)C(=O)N[C@@H]1C(=O)N(C)[C@H](CC(C)C)C(=O)N[C@@H](CC(C)C)C(=O)N(C)[C@@H](CC(C)C)C(=O)N(C)[C@@H](C)C(=O)N[C@H](CC(C)C)C(=O)N2CCC[C@@H]2C(=O)O[C@@H]1C | 0.58
CC(=O)N[C@@H]1C(=O)N2CCC[C@H]2C(=O)N(C)[C@H](CC(C)C)C(=O)N(C)[C@H](CC(C)C)C(=O)N[C@@H](CC(C)C)C(=O)N(C)[C@@H](CC(C)C)C(=O)N[C@H](C)C(=O)N[C@@H](CC(C)C)C(=O)N2CCC[C@@H]2C(=O)O[C@@H]1C | 4.8
CC(=O)N1CCC[C@@H]1C(=O)N(C)[C@@H](CC(C)C)C(=O)N[C@@H]1C(=O)N[C@@H](CC(C)C)C(=O)N[C@H](CC(C)C)C(=O)N(C)[C@@H](CC(C)C)C(=O)N(C)[C@@H](C)C(=O)N[C@@H](CC(C)C)C(=O)N2CCC[C@H]2C(=O)O[C@@H]1C | 1.1
CC(=O)N1CCC[C@H]1C(=O)N(C)[C@@H](CC(C)C)C(=O)N[C@@H]1C(=O)N[C@H](CC(C)C)C(=O)N[C@H](CC(C)C)C(=O)N[C@H](CC(C)C)C(=O)N(C)[C@H](C)C(=O)N[C@H](CC(C)C)C(=O)N2CCC[C@H]2C(=O)O[C@@H]1C | 0.11

The 3 highest values of PAMPA among the entries above:

compound	PAMPA (10^-6 cm/s)
CC(=O)N1CCC[C@H]1C(=O)N[C@@H]1C(=O)N[C@H](CC(C)C)C(=O)N[C@@H](CC(C)C)C(=O)N[C@@H](CC(C)C)C(=O)N[C@H](CC(C)C)C(=O)N(C)[C@@H](C)C(=O)N[C@@H](CC(C)C)C(=O)N2CCC[C@@H]2C(=O)O[C@@H]1C	13
CC(=O)N1CCC[C@@H]1C(=O)N(C)[C@@H](CC(C)C)C(=O)N[C@@H]1C(=O)N(C)[C@H](CC(C)C)C(=O)N(C)[C@@H](CC(C)C)C(=O)N[C@H](CC(C)C)C(=O)N(C)[C@H](C)C(=O)N[C@@H](CC(C)C)C(=O)N2CCC[C@@H]2C(=O)O[C@@H]1C	9.3
CC(=O)N1CCC[C@H]1C(=O)N[C@@H]1C(=O)N(C)[C@H](CC(C)C)C(=O)N(C)[C@H](CC(C)C)C(=O)N(C)[C@H](CC(C)C)C(=O)N[C@@H](CC(C)C)C(=O)N(C)[C@@H](C)C(=O)N[C@@H](CC(C)C)C(=O)N2CCC[C@@H]2C(=O)O[C@@H]1C	7.2